Bioassay records as filed in PubChem BioAssay.
GIV-Gai inh: blocks GIV peptide binding to rat Galpha-i3; P08753; Galpha-i3/FITC-GIV peptide fluorescence polarization, 90 min; stronger effect = lower value; scaled: aluminum fluoride 0%, vehicle 100%; percent of control (FP), % (no concentration beside the values); 210,000 tested, 0.42% active; AID 1224905;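 active = replicate mean at 85% of control or lower, very high polarization wells dropped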;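 also: wells of about 15 µL received 100 nL stock; the first replicate is given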
HCMV NEC inh: inhibitors of HCMV UL50-UL53 interaction, biochemical, HTRF. HCMV UL50-UL53 nuclear egress complex (human cytomegalovirus). normalized percent inhibition. inhibition, % (no concentration beside the values). 190,000 tested, 0.15% active. AID 1918969, 2023; in the data active means inhibition above about 27%, passing the limit was not always enough
* hit, by the source's call; · = no result given. This is one part of a sample in which hits are shown more often than they occur.

#1 CSc1nc(NCc2ccccc2)c(C#N)c(-c2ccccc2)n1
#2 CSc1nc(NC(C)C)c(C#N)c(-c2ccccc2)n1
#3 Nc1c2c3c(c(Cl)ccc3[nH]c1=O)C(=O)c1ccccc1-2
#4 O=C1c2ccccc2-c2c(NCCc3ccccc3)c(=O)[nH]c3cccc1c23
#5 CCCCNc1c2c3c(cccc3[nH]c1=O)C(=O)c1ccccc1-2
#6 O=C1c2ccccc2-c2c(Nc3ccccc3)c(=O)[nH]c3cccc1c23
screen / no. | 1 | 2 | 3 | 4 | 5 | 6
GIV-Gai inh | 100 | 97 | 102 | -73* | -48* | 111
HCMV NEC inh | 22 | 29* | · | · | -58 | ·

#7 CC1CCC2(CC1)NC(=S)N(C)N2 (configuration not stated)
#8 COc1ccc(Cl)cc1NC(=O)c1cn(C2CCCCC2)c(=O)c2c1c1ccccc1n2C
#9 CCOc1ccccc1NC(=O)c1cn(C2CCCCC2)c(=O)c2c1c1ccccc1n2C
#10 Cn1c(=O)c2nc3ccc(NC(=O)c4ccccc4)cc3nc2n(C)c1=O
#11 Cn1c(=O)c2nc3ccc(N)cc3nc2n(C)c1=O
#12 CCn1c(O)c(/C=N/c2nc3ccccc3[nH]2)sc1=S
screen / no. | 7 | 8 | 9 | 10 | 11 | 12
GIV-Gai inh | 103 | 104 | 100 | 110 | 19* | ·
HCMV NEC inh | -22 | 14 | 54* | · | · | -3

#13 CCn1c(O)c(C=Nc2cccc(O)c2)sc1=S
#14 O=C(O)c1ccccc1-c1ccccc1C(=O)O
#15 O=C(O)c1ccccc1C1=Nc2ccc(O)cc2Oc2cc(O)ccc21
#16 Cc1ccc(CNC(=O)C2(O)c3ccccc3NC(=O)N2c2ccc(C)c(C)c2)cc1 (configuration not stated)
#17 CN1CCc2c(sc3c2C(=O)NC(c2ccc(OC(=O)c4ccccc4)cc2)N3)C1 (configuration not stated)
#18 CN1CCc2c(sc3c2C(=O)NC(c2ccc(OC(=O)c4ccc(Cl)cc4)cc2)N3)C1 (configuration not stated)
screen / no. | 13 | 14 | 15 | 16 | 17 | 18
GIV-Gai inh | 66* | 110 | -91* | 97 | 23* | 221
HCMV NEC inh | -12 | 8 | -27 | · | -123 | -93

#19 CCCC1CC(C)(c2csc(NCC)n2)OC1=O (configuration not stated)
#20 CC(=O)NN1C(=O)c2cccc3c(N(C)C)ccc(c23)C1=O
#21 CN(C)c1ccc2c3c(cccc13)C(=O)N(c1nc3ccccc3n1C)C2=O
#22 O=C(CCC(=O)N1CCc2cc(S(=O)(=O)NCCC3=CCCCC3)ccc21)N1CCCC1
#23 CCc1c(C)nc2c(C)cccc2c1Cl
#24 CCn1cc(CCC(=O)NCc2ccccc2Cl)c2ccccc21
screen / no. | 19 | 20 | 21 | 22 | 23 | 24
GIV-Gai inh | 99 | 66* | 146 | 99 | 107 | 103
HCMV NEC inh | 0 | · | 4 | -34 | 3 | -5

#25 Oc1ccc(C=Nc2cccc(C(F)(F)F)c2)c(O)c1
#26 Oc1ccc(C=Nc2ccc(Nc3ccccc3)cc2)c(O)c1
#27 CC(=O)N(C(C)=O)N1C(=O)c2cccc3c(N4CCOCC4)ccc(c23)C1=O
#28 O=C1c2cccc3c(N4CCCCC4)ccc(c23)C(=O)N1c1ccccn1
#29 COc1ccc(S(=O)(=O)CCc2nnc(-c3ccncc3)o2)cc1
#30 C=CCn1c(=O)/c(=C2/Sc3ccc(OC)cc3N2CC)s/c1=C1\SC(=S)N(CCCC)C1=O
screen / no. | 25 | 26 | 27 | 28 | 29 | 30
GIV-Gai inh | 110 | 6.8* | 165 | -29* | 96 | 42*
HCMV NEC inh | 8 | 2 | -97 | -120 | -16 | ·

#31 C=CCn1c(=O)/c(=C2/Sc3ccccc3N2CC)s/c1=C1\SC(=S)N(C)C1=O
#32 Cc1ccc(C)c(NS(=O)(=O)c2cc(-c3nc(C)c(C)s3)sc2C)c1
#33 COc1ccc2c(c1)CC/C(=C\c1cccn1C)C2=O
#34 Cn1cccc1/C=C1\CCC/C(=C\c2cccn2C)C1=O
#35 COC(=O)c1ccc2c(=O)n(Cc3ccc(C(=O)NCCc4ccc(S(N)(=O)=O)cc4)cc3)c(=S)[nH]c2c1
#36 O=C(O)CNC(=O)/C=C/c1ccccc1F
screen / no. | 31 | 32 | 33 | 34 | 35 | 36
GIV-Gai inh | 331 | 99 | 101 | -88* | 107 | 103
HCMV NEC inh | · | · | -50 | -78 | · | ·

4 entries out of the list above, arranged by their value in GIV-Gai inh, high to low.
| item | Molecule | GIV-Gai inh |
| --- | --- | --- |
| 35 | COC(=O)c1ccc2c(=O)n(Cc3ccc(C(=O)NCCc4ccc(S(N)(=O)=O)cc4)cc3)c(=S)[nH]c2c1 | 107 |
| 33 | COc1ccc2c(c1)CC/C(=C\c1cccn1C)C2=O | 101 |
| 32 | Cc1ccc(C)c(NS(=O)(=O)c2cc(-c3nc(C)c(C)s3)sc2C)c1 | 99 |
| 34 | Cn1cccc1/C=C1\CCC/C(=C\c2cccn2C)C1=O | -88* |

(listing goes on)
#37 Nc1nnc(CCC2CCCCC2)s1
#38 N#CC1=C(N)SC(N)=C(C#N)C1CCC1CCCCC1
#39 O=C(CSc1ncnc2c1oc1ccccc12)NCc1ccccc1
#40 O=C(CSc1ncnc2c1oc1ccccc12)NC1CCCCC1
#41 Cn1nc(C(C)(C)C)cc1NC(=O)Nc1ccc(Cl)cc1
#42 Cn1nccc1NC(=O)Nc1ccc(Cl)cc1
screen / no. | 37 | 38 | 39 | 40 | 41 | 42
GIV-Gai inh | 101 | -95* | · | · | · | 102
HCMV NEC inh | -12 | -7 | 6 | 62* | -10 | 66*

#43 COc1ccccc1-c1nn2c(Cn3cnc4ccccc43)nnc2s1
#44 O=C1/C(=C/c2ccc(O)cc2)SC(=S)N1CCc1ccccc1
#45 CO/C=C1\SC(=S)N(CCc2ccccc2)C1=O
#46 CCOC(=O)c1ccc(Nc2nnc(-c3cc4ccc(N(CC)CC)cc4oc3=O)s2)cc1
#47 CCN(CC)c1ccc2cc(-c3nnc(Nc4ccc(C)cc4)s3)c(=O)oc2c1
#48 CN(C)c1cccc(C(=O)OCC(=O)c2ccc(OC(F)F)cc2)c1
screen / no. | 43 | 44 | 45 | 46 | 47 | 48
GIV-Gai inh | 110 | -5.9* | 154 | 229 | -70* | ·
HCMV NEC inh | -45 | · | -52 | -10 | · | -8

#49 Cn1cc(CCC(=O)NC2CCN(Cc3ccccc3)CC2)c2ccccc21
#50 CCN(CC)c1ccc(/C=C2\N=C(SC)SC2=O)cc1
#51 CSC1=N/C(=C\c2ccccc2)C(=O)S1
#52 Cc1c(C(=O)O)oc2c1-c1[nH]ncc1CC2
#53 Cc1cc(C)cc(NC(=O)c2oc3c(c2C)-c2[nH]ncc2CC3)c1
#54 Nc1cccc(-c2cnco2)c1
screen / no. | 49 | 50 | 51 | 52 | 53 | 54
GIV-Gai inh | 102 | -78* | 107 | 98 | 110 | 105
HCMV NEC inh | -29 | -30 | -19 | 61* | · | 4

#55 Nc1cccc(-c2ncon2)c1
#56 CCN(CC)c1ccc2cc(C(=O)Nc3ccccc3)c(=N)oc2c1
#57 CCN(CC)c1ccc2cc(C(=O)Nc3ccc(C)cc3)c(=N)oc2c1
#58 CCN(CC)c1ccc2cc(-c3nc4ccccc4c(=O)[nH]3)c(=N)oc2c1
#59 CCN(CC)c1ccc2cc(-c3c(O)c4ccccc4[nH]c3=O)c(=O)oc2c1
#60 NS(=O)(=O)c1ccc(CCNC(=O)CN2C(=O)c3cccnc3Oc3ccccc32)cc1
screen / no. | 55 | 56 | 57 | 58 | 59 | 60
GIV-Gai inh | 106 | 73* | 136 | 8.2* | · | 100
HCMV NEC inh | 83* | · | -18 | -9 | -9 | -2

#61 c1ccc(-c2nn3c(-c4ccccn4)nnc3s2)nc1
#62 CC1=C(C(=O)NCCN(C)C)C2(CCN(Cc3ccccc3)CC2)OC1=O
#63 CN(C)c1ccc(-c2nc3c4ccccc4ncn3n2)cc1
#64 CC1Cc2ccccc2N1C(=O)CC(=O)N1c2ccccc2CC1C (configuration not stated)
#65 N#Cc1c(-c2ccc3c(c2)OCO3)cc(-c2ccc(F)cc2)nc1N
#66 N#Cc1c(N)oc(-c2ccc3c(c2)OCO3)c1-c1ccc2c(c1)OCO2
screen / no. | 61 | 62 | 63 | 64 | 65 | 66
GIV-Gai inh | 101 | 107 | 99 | · | 111 | -54*
HCMV NEC inh | -8 | -29 | -19 | -13 | 2 | -55

#67 O=C(O)CCc1nc2ccc(C(=O)O)cc2[nH]1
#68 C=Cc1c(C)c2cc3[nH]c(cc4nc(cc5nc(cc1[nH]2)C(C)=C5CCC(=O)O)C(CCC(=O)O)=C4C)c(C)c3C=C
#69 CCNC(=O)COc1ccccc1-c1nc(-c2ccccc2)no1
#70 CC(C)CN1C(=O)/C(=C/c2c(N3CCN(CCO)CC3)nc3ccccn3c2=O)SC1=S
#71 O=C(O)CCCN1C(=O)/C(=C/c2c(N3CCN(Cc4ccccc4)CC3)nc3ccccn3c2=O)SC1=S
#72 CS(=O)(=O)c1ccc(-c2nnn(CC(=O)NC3CCCC3)n2)cc1
#73 COc1ccc(CN2C(=O)NC(=O)/C(=C\c3cc(OC)ccc3OC)C2=O)cc1
#74 COc1ccc(/C=C2/C(=O)NC(=O)N(c3ccc(Br)cc3)C2=O)c(OC)c1
#75 COc1cc(C(=O)CSc2cccc[n+]2[O-])cc(OC)c1OC
screen / no. | 67 | 68 | 69 | 70 | 71 | 72 | 73 | 74 | 75
GIV-Gai inh | 100 | 106 | 98 | 41* | 146 | 104 | 112 | 107 | ·
HCMV NEC inh | · | 86* | -14 | -86 | -1 | -6 | 83* | -3 | -22
